Experimental data published in patent US8957024B2, “Composition and methods for reducing opioid-induced pruritus” (priority 2011, dated 2015).

System: mice
Assay: Scratching behavior after i.t. opioid injection (morphine-induced scratching, MIS)
Settings: morphine 0.3 nmol, DAMGO 0.02 nmol, fentanyl

Question: With CN1CC[C@]23c4c5ccc(O)c4O[C@H]2[C@@H](O)C=C[C@H]3[C@H]1C5 [morphine] as the compound, how does the “opioid-induced scratching in GRPR KO vs wild-type littermate mice” value read?
Answer: The value was “nearly abolished”.
